Compounds with a hit are over-represented: about 2.8% of the library has one in this group of screens.
PGC1a acetyl inh – modulators of PGC1a acetylation; U2OS PGC1a acetylation, AlphaScreen anti-acetyl-lysine; with virally co-expressed GCN5 acetyltransferase; inhibition, % at 15.6 µM; 0.17% of 350,000 active;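 active = every replicate shows inhibition of at least 40%; inconclusive = mean inhibition at least 40% but some replicate below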;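 also: 0% = neutral control wells and 100% = positive control wells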
Statin myotox sup – protects C2C12 myotubes from simvastatin toxicity | 0.78% of 330,000 active | AID 602340 | ATP luminescence, 48 h; scaled: DMSO 0, geranylgeraniol control 100 | rescue of ATP level, % at 7.49 µM;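 active = mean ATP rescue above about 67%, or every replicate alone reaching that limit, limit read from the data, passing the limit was not always enough; inconclusive = no clear call, values can overlap the other calls; inactive = mean under the limit and some replicate under it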;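 also: myotubes were challenged with 10 µM simvastatin during compound exposure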
esBAF inh – inhibitors of esBAF chromatin remodeling in mouse ES cells; 2% of 350,000 active; Bmi1-luciferase knock-in reporter, 24 h; 100% = twice the neutral-well signal; reporter increase, % at 12.5 µM; in the data active = activation above about 40%; inconclusive = no clear call, values can overlap the other calls;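 also: 0% = median of the plate's neutral control wells and 100% = double that signal; a rise in the Bmi1 reporter signal indicates esBAF inhibition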
E-sel inducer – E-selectin induction on HUVECs; P16581; 0.37% of 260,000 active; activation, % at 7.58 µM; HUVEC E-selectin immunofluorescence imaging; normalized: neutral wells 0, TNF-alpha wells 100;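 active = mean E-selectin-positive cell signal at least 10% of the positive control, reached in at least 60% of replicates, without over 20% cell loss; inconclusive = no rule given, readout overlaps actives, possibly toxicity-flagged; inactive = the rest, including those meeting only one limit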
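Test system: HUVEC | Signal: Immunofluorescence imaging | Read-out: Percent E-selectin-positive cells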
PglD inh – PglD (C. jejuni) enzyme inhibition; purified PglD enzyme, DTNB colorimetric CoA detection; inhibition, % at 12.5 µM; 0.098% of 360,000 active; AID 602405; in the data active = inhibition above about 16%, passing the limit was not always enough; inconclusive = no clear call, values can overlap the other calls
UUG fidelity – alters start codon recognition fidelity in yeast | S. cerevisiae UUG-firefly luciferase reporter, luminescence/redox ratio | activity score, % at 18.7 µM | hit rate 0.13% among 350,000 | AID 602363;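 active means replicate mean at a twofold rise or more, about +100% in these data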;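 further: firefly luciferase made from a UUG start codon reports start codon fidelity; reporter light over untreated wells divided by growth signal over untreated wells; some hits fall short of that in this replicate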
Starred values were filed as active, the others as inactive; ? = inconclusive; . = no result.

Results follow in this order: PGC1a acetyl inh	Statin myotox sup	esBAF inh	E-sel inducer	PglD inh	UUG fidelity
> CN(C)c1cccc(C(=O)NC2CCCCCC2)c1
  -12	-6	44*	.	4	-9
> Cc1cccc(C(=O)NC2CCCCCCC2)c1
  -1	4	65*	?	4	-5
> COc1cccc(C(=O)NC2CCCC2)c1
  .	5	19	.	0	7
> Cc1cc(C(=O)NC2CCCCCCC2)ccc1[N+](=O)[O-]
  -2	2	66*	1	1	-7
> Cc1cc(C(=O)OCC(=O)NC2CC2)ccc1[N+](=O)[O-]
  6	-3	3	.	-8	-15
> C[C@H](CO)N1C[C@H](C)[C@@H](CN(C)S(=O)(=O)c2ccccc2)Oc2ccc(NC(=O)CCCCCC(=O)Nc3ccccc3N)cc2CC1=O
  -4	-2	0	0	0	2
> COc1cccc(NC(=O)Nc2ccccc2Br)c1
  2	-1	59*	.	-2	-16
> Cc1cccc(NC(=O)NC2CCCCCCC2)c1
  -9	-9	62*	0	-2	3
> CC(=O)c1cccc(NC(=O)NC2CCCCCCC2)c1
  2	.	.	.	1	-11
> CN(C)CC#Cc1ccc([C@H]2[C@@H](CO)N3C(=O)CN(C(=O)c4cccc(F)c4)C[C@@H]23)cc1
  -2	.	.	0	.	.
> O=[N+]([O-])c1cccc(-c2ncc3ccccn23)c1
  8	.	.	0	.	.
> Nc1c(-c2cccc([N+](=O)[O-])c2)nc2ccccn12
  .	7	59*	.	.	.
> COc1ccc(C(CC(=O)c2ccc(C)cc2)Sc2ccccc2N)cc1 (configuration not stated)
  -4	23	60*	1	-2	-29
> CC1CCCC(C)N1C(=O)CSc1nc2c(c(=O)n(C)c(=O)n2C)n1C (configuration not stated)
  6	-2	-1	27*	4	-4
> Cc1cccc(Oc2nc3c(c(=O)n(C)c(=O)n3C)n2C)c1
  2	3	-2	0	10	-17
> Cn1c(=O)c2c(nc(Oc3ccccc3)n2C)n(C)c1=O
  7	142*	-10	.	-1	-11
> CCOc1ccc(OCCOc2ncnc3ccccc23)cc1
  -15	-1	46*	.	0	-15
> c1ccc(N2CCN(Cc3nc4ccccc4[nH]3)CC2)nc1
  .	9	7	0	-7	-13
> c1ccc(-c2ncc(CN3CCN(c4ccccn4)CC3)[nH]2)cc1
  27	79*	2	0	-4	-14
> CCC(=O)/C=C1/Sc2ccccc2N1CC
  8	112*	3	.	2	-22

Part of the list above with just PglD inh:
smiles	PglD inh
Cc1cc(C(=O)OCC(=O)NC2CC2)ccc1[N+](=O)[O-]	-8
C[C@H](CO)N1C[C@H](C)[C@@H](CN(C)S(=O)(=O)c2ccccc2)Oc2ccc(NC(=O)CCCCCC(=O)Nc3ccccc3N)cc2CC1=O	0

Further records.
Results follow in this order: PGC1a acetyl inh	Statin myotox sup	esBAF inh	E-sel inducer	PglD inh	UUG fidelity
> CCC(=O)/C=C1/Sc2ccc(OC)cc2N1CC
  -9	-5	1	.	-1	-15
> CCCC(=O)Nc1ccc2c(c1)C(=O)N(C)[C@H]1CC[C@@H](CC(=O)NCCOC)O[C@@H]1CO2
  7	7	-1	0	9	-6
> O=C(Nc1ccccc1)c1nnsc1S(=O)c1ccc(Cl)cc1 (configuration not stated)
  -125	.	44*	.	12	4
> c1ccc2c(c1)COc1c3ncccc3nn1-2
  4	-2	50*	0	6	-22
> CN(CC(=O)NCc1ccco1)CC(=O)Nc1ccc(F)c(F)c1F
  -8	109*	.	0	-1	-5
> CSCC[C@H](NC(=O)c1ccc(Br)o1)c1nnc2ccccn12
  43*	11	2	.	3	-3
> CSCC[C@H](NC(=O)c1cccs1)c1nnc2ccccn12
  9	-7	2	.	-2	7
> O=C(Nc1ccccc1Cl)NC1(C(=O)N2CCCCC2)CCCCC1
  50	101*	-4	.	-1	-11
> COC(=O)[C@@H]1C[C@@H](C(=O)O)[C@H](C)C1(C)C
  .	-9	-2	0	-3	-8
> COc1ccc(C)cc1C(=O)C1CC(C(=O)O)C(C)(C)C1C (configuration not stated)
  5	104*	-1	.	.	.
> COc1ccc(CNC(=O)Cn2ccc(N)nc2=O)cc1
  .	9	8	39*	4	-24
> Cc1ccc(S(=O)(=O)N[C@H]2CC[C@@H](CC(=O)N3CCc4ccccc4C3)O[C@@H]2CO)cc1
  -18	2	-3	0	8	.
> Cc1ccccc1S(=O)(=O)/N=C(/Nc1nc2ccccc2s1)c1ccccc1
  .	-1	62*	.	0	-16
> O=C(Cc1nc(=O)c2ccccc2s1)Nc1ccccc1
  -16	-21	62*	.	0	-21
> Cc1ccccc1S(=O)(=O)/N=C(/Nc1c(C)n(C)n(-c2ccccc2)c1=O)c1ccccc1
  -11	-1	3	0	-1	-7
> O=C(Cc1ccccc1)Nc1nc2ccccc2s1
  -11	.	50*	.	-2	0
> CC(C)C(=O)NNc1nc2ccccc2s1
  7	15	92*	.	-3	-15
> O=C(Cc1nnc(NC(=O)Nc2ccccc2)s1)Nc1ccccc1
  36	.	.	1	-2	-15
> O=C(Cc1ccccc1)Nc1nc(=O)c2ccccc2s1
  -8	.	.	.	-1	-8
> N#C[C@H]1[C@@H](c2ccccc2)[C@@H](CO)N1C(=O)c1ccc2c(c1)OCO2
  4	-8	2	0	-1	.
> O=C(Cc1cccs1)Nc1nc2ccccc2s1
  .	3	49*	.	3	3
> Cc1ccc2nc(NC(=O)Cc3cccs3)sc2c1
  -15	16	38	.	3	-20
> Cc1noc(C)c1NC(=O)Nc1ccc2c(c1)C(=O)N([C@H](C)CO)C[C@H](C)[C@@H](CN(C)S(=O)(=O)c1ccccc1)OCCCC[C@@H](C)O2
  7	.	4	0	2	-5
> CC(C)C(NC(=O)C1CCCCC1)C(=O)Nc1ccncc1 (configuration not stated)
  0	124*	-2	.	0	3
> CC(C)C(NC(=O)C1CCCCC1)C(=O)Nc1ccc2c(c1)OCCO2 (configuration not stated)
  -21	13	-19	-2	-1	-44
> Cc1ccc(-c2cc(-c3ccccc3)no2)c(O)c1
  -7	.	.	.	-5	-19
> O=C(c1cc(-c2ccccc2O)on1)N1CCCCCC1
  11	4	60*	.	1	-11
> COc1ccc(-c2cc(C(=O)N3CCCCCC3)no2)cc1OC
  .	6	71*	.	-7	-2
> O=C(c1cc(-c2ccc(Cl)cc2Cl)on1)N1CCOCC1
  4	-9	-49	.	-5	-56
> O=C(c1cc(-c2ccccc2O)on1)N1CCOCC1
  -6	33	51*	.	-2	-16
> Oc1ccccc1-c1cc(-c2ccccc2)no1
  4	94*	37	.	6	-20
> O=C(c1cc(-c2ccccc2)on1)N1CCCCCC1
  7	-1	55*	.	-3	-22
> Cc1ccc(-c2cc(C(=O)N3CCCCCC3)no2)cc1
  -2	-5	-5	0	2	-32
> CO[C@@H]1CN(C)C(=O)c2ccc(NC(=O)c3cnccn3)cc2OC[C@@H](C)N(CC2CC2)C[C@@H]1C
  -13	.	.	0	.	.

3 compounds already listed, arranged by their value in PglD inh, descending.
mol,PglD inh
Oc1ccccc1-c1cc(-c2ccccc2)no1,6
CC(C)C(NC(=O)C1CCCCC1)C(=O)Nc1ccncc1 (configuration not stated),0
O=C(c1cc(-c2ccccc2)on1)N1CCCCCC1,-3

In the list so far, 2 contain an NH in an aromatic ring.
Results follow in this order: PGC1a acetyl inh	Statin myotox sup	esBAF inh	E-sel inducer	PglD inh	UUG fidelity
> c1ccc(N2CCN(Cc3nc4ccccc4[nH]3)CC2)nc1
  .	9	7	0	-7	-13
> c1ccc(-c2ncc(CN3CCN(c4ccccn4)CC3)[nH]2)cc1
  27	79*	2	0	-4	-14
